Results on 1 molecule are retold here after patent US20260007720A1, “TISSUE REGENERATIVE MULTI-DRUG COCKTAIL AND APPARATUS FOR DELIVERY THEREOF” (priority 2022, published 2026).

Experiment [1] relates to amputated P2 bone. The experiment can be described thus: Single treatment with growth factor cocktails after P2 amputation (micro-CT recovered bone). Conditions: single treatment for 7 days; micro-CT at 98 days post amputation. The class given is in vivo, adult CD-1 mice. The protocol: 3D representation of different metrics used to calculate the percentage of recovered bone. Recovered bone is the amount of new bone formed (Lt-LE) compared to the amount of bone removed (La).
Hydrogel Fabrication—For silk hydrogel preparation, the silk solution was diluted to a working concentration of 3% (w/v) using Hanks buffer solution with phenol red (Sigma-Aldrich, St. Louis MO), DMEM (1:10 dilution of stock, Sigma-Aldrich, St. Louis, MO), Glutamax™ (1:100 stock solution, Fischer Scientific, Waltham MA) and dextrose (final concentration at 4.5 mg/mL gel solution, Sigma-Aldrich, St. Louis, MO). The system was then enzymatically cross-linked at the tyrosine side chains using horseradish peroxidase enzyme (HRP) at 5 U/ml (Sigma-Aldrich, St. Louis, MO) with hydrogen peroxide at 0.0067% overall volume. Sodium bicarbonate was added to balance the pH of the hydrogel based on the color of the gel generated by the phenol red present in the supplemented Hank's buffer solution and concentrated DMEM. Silk hydrogels loaded with bioactive compounds are fabricated by mixing the active ingredients with SF prior to gelation to modulate the wound microenvironment. The liquid solution was poured into the silicon sleeve and allowed to gel for one hour at room temperature and stored at 4° C. for no more than 12 hours before attachment to the limb stump. […]

In experiment [2] the test system is amputated P2 bone. The experiment can be described thus: Multiple treatments targeting chondrogenesis after P2 amputation. The format is in vivo, adult CD-1 mice. Conditions: 98 days after amputation. As for the experimental part: A) Schematic illustration of the timeline of the experiment. B) Quantification of net-recovered bone after multiple treatment by IGF-1 and BMP2 at 98 days after amputation. C) Representative micro-CT renderings of the bone of C) IGF-1 and D) BMP2 treated groups. The red dashed line represents the amputation plane. Scale bar=250 μm.
Amputation Surgery and Device Attachment and Removal—All experiments were performed under the approval of Tuft's IACUC. All animals were housed in 12-hour light and dark cycles and fed using the recommended feed. Female CD-1 (Charles River Laboratories, Wilmington, MA) and FVB/NJ mice (Jackson Laboratories, Bar Harbor, ME) from 8 to 10 weeks of age were used in the study. Animals were anesthetized with isoflurane administered at 2 to 5% air composition. For single treatment (FIG. 20A), P2 amputation in hindlimb digit 3 was made using a scalpel under a dissection microscope. Immediately after P2 amputation, the dragonskin insert containing silk hydrogel with or without bioactive molecules was then attached to the amputated digit using Skin Tite™ Bioadhesive (Smooth-On, PA). Prior to hydrogel loading, all materials and tools used in the experiment (e.g. surgical tools and device components) were autoclaved to ensure sterility. Devices were attached for various time periods and the amputation digits were then allowed to heal after device removal. […]

B1: bone morphogenetic protein 2 (protein, UniProt P12643 283-396, looked up)
Bone morphogenetic protein 2: QAKHKQRKRLKSSCKRHPLYVDFSDVGWNDWIVAPPGYHAFYCHGECPFPLADHLNSTNHAIVQTLVNSVNSKIPKACCVPTELSAISMLYLDENEKVVLKNYQDMVVEGCGCR
notes: growth factor, 600 ng-2 μg in silk hydrogel
As for B1, the P2 bone elongation entry with amputated P2 bone [1] is “promotes P2 bone elongation”; in the experiment on amputated P2 bone [2] it was “promote P2 bone elongation”.
